scFv variants of Ab-14 (heavy chain) against a SARS-CoV-2 spike peptide

Target peptide (SARS-CoV-2 spike, HR2 region): PDVDLGDISGINAS

The variants keep the light chain, the linker and the frameworks of Ab-14 (scFv order VH, a (GGGGS)3 linker, VL).
VH: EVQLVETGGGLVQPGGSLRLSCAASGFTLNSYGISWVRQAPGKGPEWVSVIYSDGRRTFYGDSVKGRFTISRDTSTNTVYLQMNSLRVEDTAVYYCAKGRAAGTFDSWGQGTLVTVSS
VL: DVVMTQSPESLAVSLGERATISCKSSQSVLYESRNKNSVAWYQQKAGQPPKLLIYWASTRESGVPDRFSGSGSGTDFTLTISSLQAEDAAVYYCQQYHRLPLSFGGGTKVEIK

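The starting antibody came from a phage panning campaign against this peptide. Designed CDR sequences, proposed from the first random library and measured here. Group labels follow the data file (Ctrl: baseline library sampled from a position-specific scoring matrix, with some repeated check sequences; Rand: our label for a block that the file lists under HC and that is probably the random mutants of the ten best first-round binders; GP: Gaussian process model; GPLM: also part of the Gaussian process libraries; HC: hill climbing; Gen: genetic algorithm; Gibbs: Gibbs sampling; a sequence that several methods proposed may carry one label only). AlphaSeq pools MATa yeast showing the antibodies with MATalpha yeast showing the peptide. After mating in shaken culture at 30 °C for 16 h, diploids were selected and their barcode pairs sequenced. Read counts were normalised to the haploid input and turned into Kd by a linear fit to BCL2-family pairs of known affinity, for each replicate. Mating was done six times.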

Changes read parent residue, position, new residue, counted from the first residue of the VH shown.
This list holds designs with at most six substitutions.
Kd is apparent (estimated from mating counts) and averaged on the log scale over replicates with a signal. Smaller is tighter.
Where no diploid with the target was found in any replicate, the entry reads "no signal": below detection, most likely a poor binder, though not proof of it.
The range of this assay differs from that of the first round, and the authors advise against merging the two.

changes	group	Kd	detected	signal with controls
G61T K65E	Ctrl	18 nM	6/6	0/18
N30Q R56F G61Y	Ctrl	no signal	0/6	0/18
G61T R100M A101E	GP_HC	56 pM	4/6	0/18
F27K T28S S53A R100K	GP_Gibbs	48 nM	2/6	2/18
T28H S31D G61I A101Y	GP_HC	150 nM	2/6	1/18
T28Q G61T R100H	GP_HC	15 nM	6/6	0/18
R56Q G61A A101V	GPLM_Gen	5.3 nM	6/6	0/18
S31E A101E S107V	GP_HC	620 pM	6/6	0/18
S31D R100D F105S	Ctrl	no signal	0/6	0/18
G26Q T58C S63E	Ctrl	no signal	0/6	1/18
T28D Y60G T104W D106N	Rand	no signal	0/6	0/18
S31D S63K A101T S107T	Ctrl	1.6 nM	6/6	0/18
T28D S31T G61D R100Q A101L	GPLM_HC	810 pM	6/6	1/18
T28S S31D S63D A101Q	GP_Gibbs	1.2 nM	6/6	0/18
T28D G61S R100V A102G	GP_HC	370 nM	4/6	0/18
S31K S53A F105N D106G	Rand	no signal	0/6	0/18
F27H S35M G61D R100Q A101L	Rand	no signal	0/6	0/18
T28E N30E G61A R100Q	GPLM_Gen	1.8 nM	6/6	0/18
N30S S53A T58V F59A	Ctrl	980 pM	6/6	0/18
G26K T28Q S31E A101T	GPLM_Gibbs	7.8 nM	5/6	0/18
T28H S31D G61A	GP_HC	67 pM	6/6	0/18
T28A S31E G61A A101T	GPLM_Gen	1.5 nM	6/6	0/18
G61D S63N R100Q A101L	GPLM_HC	no signal	0/6	0/18
G61E A101V T104Q S107H	Ctrl	no signal	0/6	0/18
T28W G61A R100Q S107L	GPLM_Gen	10 nM	2/6	0/18
S31E G61K R100K	GP_HC	1.1 nM	6/6	0/18
S31D S35V G103L D106I	Rand	no signal	0/6	0/18
S31Q G61S S63Q T104F	Rand	no signal	0/6	1/18
T28D R56K G61A A101L	GP_Gibbs	3.5 nM	6/6	2/18
G61I A101V	GPLM_Gen	37 nM	3/6	1/18
T28D G61I S63Q R100N	GP_Gen	4.1 nM	6/6	0/18
S31E R100T S107L	GP_HC	1.2 nM	6/6	0/18
S31E G61L A101F	GPLM_HC	no signal	0/6	0/18
N30E R100V A101S	Ctrl	200 nM	1/6	0/18
F27A F59A G61H A102Q D106R	Ctrl	no signal	0/6	0/18
G61N S63K	Ctrl	220 nM	3/6	0/18
A101S	Ctrl	55 nM	3/6	3/18
T28G S31E F59A R100F A101S T104D	Ctrl	760 pM	6/6	0/18
D106T S107V	GP_HC	no signal	0/6	0/18
T28D G61Q S63M A101T	GP_Gibbs	12 nM	6/6	0/18
S31E G61S S63A A101L	GP_HC	800 pM	6/6	0/18
G26K T28D G61S R100K A101T	GP_Gibbs	650 pM	6/6	0/18
T28S G61A R100Q S107R	GPLM_Gen	1.5 nM	6/6	0/18
N30D G61D R100Q A101L	GPLM_HC	1.6 nM	6/6	0/18
S31M S53A A102P	Ctrl	14 nM	6/6	0/18
S31E K65Y A102I T104R	Ctrl	no signal	0/6	0/18
T28S G61A S63M R100Q	GPLM_Gen	7.2 nM	6/6	0/18
T28E S31M R100Q	GP_Gen	19 nM	6/6	1/18
S31Q Y32M S53A F59Q G61I	Rand	2.2 nM	6/6	0/18
T28D Y32F G61L R100Q A101T	GP_HC	20 nM	5/6	1/18
S31E S107E	Ctrl+GP_HC	5.1 nM	10/12	1/36
T28S S35Q I51D F59A	Ctrl	no signal	0/6	0/18
T28S S31D A101K	GPLM_Gen	6.2 nM	6/6	0/18
T28E R100A	GP_Gen	18 nM	6/6	0/18
S31D D54G G61H S107T	Ctrl	no signal	0/6	0/18
G26M T28E S53A R100N	GP_Gibbs	5.4 nM	6/6	0/18
S53A R100K S107T	GPLM_Gen	940 pM	6/6	0/18
G61S A102G T104P	Rand	no signal	0/6	0/18
T28N R100Q S107L	GPLM_Gen	no signal	0/6	1/18
S31Q G61S G103V S107T	GP_HC	no signal	0/6	0/18
S31E G61A S63A A101F	GPLM_HC	19 nM	6/6	0/18
T28D G61T R100N	GPLM_Gibbs	4.7 nM	6/6	0/18
F27N F59A A101V	Ctrl	1.3 nM	6/6	0/18
S31E A101T D106F	GPLM_Gen	no signal	0/6	0/18
S31D R100Q	Ctrl	16 nM	6/6	1/18
A101E T104V	Ctrl	64 nM	5/6	0/18
T28D S63K A101T S107T	GP_Gibbs	870 pM	6/6	0/18
T28S G61A S63M R100K	GPLM_Gen	no signal	0/6	0/18
R56M A101T	GPLM_Gen	5.9 nM	6/6	0/18
S31D D106T S107Q	GPLM_HC	no signal	0/6	0/18
T28G S31E	GPLM_Gen	1.6 nM	6/6	0/18
T28S G61A S63H R100E	GPLM_Gen	2.7 nM	6/6	0/18
T28S S63R R100V A101E	GP_Gibbs	1.5 nM	6/6	0/18

Again, the first 11 entries without any signal:

changes	group	Kd	detected	signal with controls
N30Q R56F G61Y	Ctrl	no signal	0/6	0/18
S31D R100D F105S	Ctrl	no signal	0/6	0/18
G26Q T58C S63E	Ctrl	no signal	0/6	1/18
T28D Y60G T104W D106N	Rand	no signal	0/6	0/18
S31K S53A F105N D106G	Rand	no signal	0/6	0/18
F27H S35M G61D R100Q A101L	Rand	no signal	0/6	0/18
G61D S63N R100Q A101L	GPLM_HC	no signal	0/6	0/18
G61E A101V T104Q S107H	Ctrl	no signal	0/6	0/18
S31D S35V G103L D106I	Rand	no signal	0/6	0/18
S31Q G61S S63Q T104F	Rand	no signal	0/6	1/18
S31E G61L A101F	GPLM_HC	no signal	0/6	0/18

Of ten entries with the parent sequence, four were seen in most replicates (averages 2.2 nM to 240 nM), three in one and three in none, so single entries are noisy.
A sequence that the file lists under several names has all its replicates pooled.
In the paper, a design with two or fewer of six values counts as a poor binder.
Empty control strains, which show no peptide, gave a signal in 1% of pairings with all heavy chain designs; the median was 120 nM and 95% of these signals were weaker than 7.0 nM. No background was subtracted. The control count says in how many pairings with the empty strains this scFv gave a signal.

Reference: Li et al. 2023, doi:10.1038/s41467-023-39022-2. File: FLAb, binding data.